Laboratory results published in patent US11197862B2, “Methods of preventing toxicity of platinum drugs” (XOMICS BIOPHARMA, INC., priority 2015, dated 2021).

Test system: OCT1, OCT2, OCT3, MATE1 and MATE2K
Conditions: oxaliplatin 20 μM in protein-free HBSS or 100% human serum

## O=C(O)C(=O)O.[NH-][C@@H]1CCCC[C@H]1[NH-].[Pt+2] [Oxaliplatin]
  transportability by transporters: confirmed the transportability of oxaliplatin by transporters including OCT1, OCT2. OCT3 and MATE1 and MATE2K
